Only a part is listed here, and it is no random draw. The source made the active and inactive calls. Rule as the data show it: active = inhibition above about 30%; inactive = the rest.

Chains of the proteins cited; added tags and fusions are not shown.
UniProt Q9Y570, whole entry: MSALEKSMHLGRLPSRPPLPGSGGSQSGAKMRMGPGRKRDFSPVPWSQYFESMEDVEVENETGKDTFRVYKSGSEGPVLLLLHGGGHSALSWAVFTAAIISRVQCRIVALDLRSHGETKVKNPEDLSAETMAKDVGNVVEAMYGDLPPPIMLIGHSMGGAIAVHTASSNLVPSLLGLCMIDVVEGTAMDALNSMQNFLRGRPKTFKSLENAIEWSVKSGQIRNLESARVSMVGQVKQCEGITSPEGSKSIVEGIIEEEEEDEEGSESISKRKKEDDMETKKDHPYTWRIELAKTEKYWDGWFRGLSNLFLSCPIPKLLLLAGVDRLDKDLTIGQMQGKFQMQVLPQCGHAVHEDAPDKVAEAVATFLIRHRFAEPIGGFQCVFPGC

This test concerns the target Protein phosphatase methylesterase 1 (Homo sapiens) (UniProt Q9Y570). The experiment in a line: Maybridge compound blocking human PME-1 (AID 2291). The settings on record: recombinant PME-1, FP-Rh probe fluorescence polarization; at 9 µM; hits give high values. Background: Fluorescence polarisation rises when a labelled molecule tumbles more slowly, as on binding a larger partner.
Consider `O=[N+]([O-])C1([N+](=O)[O-])COCOC1`, for which the inhibition – broadly, the share of the control response that was lost under treatment – is inactive: 1.3%.

(Values after PubChem BioAssay AID2291 (The Scripps Research Institute Molecular Screening Center, 2010).)
